Test results reported in paper PMC9889916.

Protein sequences, listed by entry. Tags and fused reporters are not part of them. Lines headed by an entry give the natural chain unless they say otherwise; changes in a name come on top. Residues count along the entry.
UniProt Q9Y6K9, 2-329: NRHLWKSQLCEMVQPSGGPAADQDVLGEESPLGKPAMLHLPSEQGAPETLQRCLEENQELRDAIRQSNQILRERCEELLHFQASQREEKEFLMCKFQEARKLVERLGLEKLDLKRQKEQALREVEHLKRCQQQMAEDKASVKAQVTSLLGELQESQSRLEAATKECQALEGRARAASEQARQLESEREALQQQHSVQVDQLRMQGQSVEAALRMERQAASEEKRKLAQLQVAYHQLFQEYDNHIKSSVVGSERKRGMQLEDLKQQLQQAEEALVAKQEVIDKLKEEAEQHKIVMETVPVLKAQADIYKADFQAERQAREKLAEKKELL

Target: untagged Q330X NEMO purified from insect cells (human) (UniProt Q9Y6K9)
Experiment: other fluorescence titration; steady-state intrinsic fluorescence (excitation 295 nm, emission 333 nm); NEMO fixed at 15 µM or Q330X NEMO at 5 µM, 4×M1-ub varied 0-30 µM (NEMO) or up to 70 µM (Q330X NEMO); 25°C, 10 mM Tris–HCl pH 7.4; fit to an equivalent and independent binding site model

Ka: 200000 M⁻¹ | stoichiometry N (mol 4×M1-ub per mol Q330X NEMO): 1
Substance: recombinant M1-linked tetra-ubiquitin (from UniProt P0CG48 1-76; P0CG48 1-76; P0CG48 1-76; P0CG48 1-76) (other; other documents disagree on this pair)
